# Antibody variant affinities, Ab-14 light chain, assay 1

Data: MIT Lincoln Laboratory AlphaSeq set, Engelhart et al. 2022, doi:10.1038/s41597-022-01779-4, as distributed in FLAb.

Binding partner: SARS-CoV-2 spike HR2 peptide, sequence PDVDLGDISGINAS.

Ab-14 is the parent antibody, in scFv form: VH, then three GGGGS repeats, then VL. The heavy chain is unchanged in all variants.
VH: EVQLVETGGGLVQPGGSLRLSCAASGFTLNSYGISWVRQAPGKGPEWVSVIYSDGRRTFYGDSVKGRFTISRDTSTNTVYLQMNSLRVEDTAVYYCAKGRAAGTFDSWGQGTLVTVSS
VL: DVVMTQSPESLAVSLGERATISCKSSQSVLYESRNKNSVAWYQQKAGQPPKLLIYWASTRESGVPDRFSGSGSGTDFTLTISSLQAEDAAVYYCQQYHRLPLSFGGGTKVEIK

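The parent was found by panning a naive human phage display library on the peptide. AAYL50 was designed without a model: most single CDR substitutions and a random sample of double and triple ones. The scFvs were displayed on barcoded MATa yeast, the peptide on MATalpha yeast. Mating (16 h, 30 °C) was followed by selection of diploids and sequencing of their barcodes. A regression on co-assayed BCL2-family reference pairs converts the normalised counts of each replicate to an apparent Kd. The assay was run in three technical replicates.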

Positions count from residue 1 of the parent VL; Q27E puts E in place of Q.
Values are log10 of the apparent Kd in nM; lower means stronger binding.
"ND" marks a missing value. The strain was present, yet no cells mated with the target were sequenced in that replicate, which points to weak or no binding.
Empty control strains, which show no peptide, gave a signal in 18% of pairings with library AAYL50; the median was 4.19 and 95% of these signals were weaker than 2.99. No background was subtracted. For each scFv, signals with the empty controls are counted beside the result.
In this assay the parent's reference entry averaged 0.65; its copy inside this library read 1.68.

Q27E/W56V/S58Y: ND, ND, 3.30 (controls 2 of 9).
W56C/S58T/Q95M: ND, ND, ND (controls 0 of 9).
Q27H/R60C/Y97Q: ND, 5.22, ND (controls 2 of 9).
W56H/H98L/L102Y: 1.18, 1.05, 1.26 (controls 1 of 9).
S38N/W56I/S62F: ND, ND, ND (controls 1 of 9).
L30I/W56A/H98Y: -0.12, 0.21, 0.00 (controls 4 of 9).
S26P/Y31M/S103R: 1.44, 1.52, 1.90 (controls 3 of 9).
K36L/A40Y/Y97D: ND, 4.86, ND (controls 1 of 9).
K24N/S33H/P101L: 1.81, 1.56, 1.83 (controls 1 of 9).
E32I/E61R: 5.15, ND, ND (controls 1 of 9).
V39N/P101R/S103V: ND, ND, ND (controls 0 of 9).
Y31D/S33K/T59D: ND, ND, ND (controls 0 of 9).
S33L/R34N/V39G: ND, ND, ND (controls 1 of 9).
Y31A/N35G/T59L: 0.76, 0.91, 0.94 (controls 0 of 9).
S38N/R99N/L100W: ND, ND, ND (controls 3 of 9).
S26Q/V29A/Y97R: ND, ND, 4.34 (controls 3 of 9).
S33L/E61S/Y97E: 2.38, 2.08, 2.69 (controls 3 of 9).
K36G/S58Y/L100T: 1.65, 1.46, 1.71 (controls 1 of 9).
V29H: ND, ND, ND (controls 0 of 9).
N37W/L100C: ND, 3.49, ND (controls 1 of 9).
Y31G/S38N: 0.15, 0.66, 0.53 (controls 1 of 9).
Y31S/S38P/S103M: 1.56, 1.71, 2.05 (controls 1 of 9).
E32V/E61I/P101I: 2.88, 2.29, 2.96 (controls 1 of 9).
V29A/A57N/S103W: ND, ND, ND (controls 1 of 9).
S25F/N37Q/A57P: ND, 3.05, ND (controls 0 of 9).
S58W: 3.20, 2.10, 2.40 (controls 1 of 9).
A57Q/R60W/Y97H: 4.15, ND, 3.91 (controls 3 of 9).
Q27D/S38A/A40N: ND, 4.27, 6.27 (controls 2 of 9).
K24N/E61Y: 0.93, 1.14, 1.25 (controls 3 of 9).
V39G/S62Y/S103D: ND, ND, ND (controls 0 of 9).
S33K/R60E/H98T: ND, 4.30, ND (controls 5 of 9).
N37V/H98Q/L102Q: 3.61, 3.93, 3.27 (controls 2 of 9).
S28R/E61D/L100Y: 3.90, 3.04, ND (controls 1 of 9).
S33F/Q96E/R99A: 4.29, 4.51, ND (controls 1 of 9).
W56N/H98Y: ND, 3.41, 4.57 (controls 1 of 9).
K24F/S25H/V29R: 2.71, ND, ND (controls 0 of 9).
S26H/S33E/S58F: 2.81, 2.56, 2.99 (controls 4 of 9).
S62W/Q95P: ND, ND, ND (controls 0 of 9).
K24D/V39F/E61P: 4.57, 5.16, ND (controls 2 of 9).
S38M/E61F/H98I: 2.55, 2.55, 2.61 (controls 2 of 9).
S25K/Y31P/S38E: 2.99, 2.58, 4.19 (controls 1 of 9).
S26K/S33M/Q96D: ND, ND, ND (controls 1 of 9).
E61M/P101C/S103R: ND, ND, ND (controls 2 of 9).
S28M/Y31M/Q96S: 2.10, 1.82, 1.77 (controls 2 of 9).
R34D/T59Y: 0.56, 0.64, 0.69 (controls 0 of 9).
S28G/W56V/R99N: ND, ND, ND (controls 1 of 9).
Q96L/Y97F/L102D: 3.49, 3.41, 4.75 (controls 1 of 9).
Q27Y/Q95M/P101R: ND, ND, ND (controls 0 of 9).

Excerpt, the first 4 entries:

changes	log10 Kd, replicates	empty controls
Q27E/W56V/S58Y	ND, ND, 3.30	2 of 9
W56C/S58T/Q95M	ND, ND, ND	0 of 9
Q27H/R60C/Y97Q	ND, 5.22, ND	2 of 9
W56H/H98L/L102Y	1.18, 1.05, 1.26	1 of 9